Experiment [1] deals with T1, EGFR (Homo sapiens, UniProt P00533). In words: EGF-induced EGFR autophosphorylation in A431 cells (Western blot). Background: In western blotting, separated proteins are transferred to a membrane and probed.
The target in experiment [2] is T1, EGFR. In words: EGFR TK ELISA with PGT substrate (competitive binding at the ATP site). The class given is biochemical. Also on record: purchased BIOMOL (Plymouth Meeting); also a gift from Pfizer Inc. How it is done: The ability of the combi-molecules to block EGFR TK activity was determined by an ELISA assay using poly(L-glutamic acid-L-tyrosine, 4:1) PGT as a substrate and commercially available EGFR.
Nunc MaxiSorp 96-well plates were incubated overnight at 37° C. with 100μL per well of 0.25 mg/mL PGT in PBS. Excess PGT was removed and the plates were washed 3 times with Tween 20 (0.1%) in PBS. […] The compound was added and phosphorylation initiated by the addition of ATP (20 μM). After 8 min at room temperature with constant shaking, the reaction was terminated by the aspiration of the reaction mixture and by rinsing the plate 4 times with wash buffer (Tween 20 (0.1%) in PBS). […] Antibody was removed by aspiration, and the plates washed 4 times with wash buffer. The signals were developed by the addition of 50 μL per well of TMB peroxidase substrate (Kierkegaard and Perry Laboratories, Gaithersberg, Md.).
This assay is similar to the one previously described. Nunc MaxiSorp 96-well plates were incubated overnight at 37° C. with 100 μl/well of 25 ng/ml PGT in PBS. Excess PGT was removed and the plates were washed three times with wash buffer (Tween 20 (0.1%) in PBS). […] The compound was added and phosphorylation initiated by the addition of ATP (20 μM). […]
For orientation: ELISA stands for enzyme-linked immunosorbent assay.

pIC50: −log10 of the molar value.

Consider `Cc1cccc(Nc2ncnc3ccc(N(C)C(=O)N(CCCl)N=O)cc23)c1` [FD137, N-(2-Chloroethyl)-N′-methyl-N′-(4-m-tolylaminoquinazolin-6-yl)-N-nitrosourea], for which, at EGFR [1], the “effect on EGFR autophosphorylation” value was “blocked EGFR autophosphorylation in A431 cells in a dose dependent manner”. Moreover, on EGFR [2], the pIC50 is around 6.00.

The pIC50 is −log10 of the IC50, conventionally taken in molar units. High values mean a small IC50, low ones a large IC50.
